Measured values taken from patent US20260078341A1, “TREATMENT OF CANCER USING CHIMERIC ANTIGEN RECEPTOR” (Novartis AG, priority 2014, published 2026).

Test system: SKOV3
Assay: SKOV3 ovarian tumor model, C4-27z CAR-T cells plus exogenous cytokines
Type: in vivo, NSG mice
Conditions: 5 μg daily i.p. for 7 days with 5×10^6 C4-27z CAR-T cells

## IL-2: common γ-chain family cytokine, exogenous
  antitumor efficacy of cytokine in combination with CAR-T cell injection: showed evidence of improving antitumor outcome
